{"sequences": {"note": "By UniProt entry, the sequences of proteins in these tests, tags left out. Residues count along the entry.", "UniProt P03951, 19-387 limits assumed": "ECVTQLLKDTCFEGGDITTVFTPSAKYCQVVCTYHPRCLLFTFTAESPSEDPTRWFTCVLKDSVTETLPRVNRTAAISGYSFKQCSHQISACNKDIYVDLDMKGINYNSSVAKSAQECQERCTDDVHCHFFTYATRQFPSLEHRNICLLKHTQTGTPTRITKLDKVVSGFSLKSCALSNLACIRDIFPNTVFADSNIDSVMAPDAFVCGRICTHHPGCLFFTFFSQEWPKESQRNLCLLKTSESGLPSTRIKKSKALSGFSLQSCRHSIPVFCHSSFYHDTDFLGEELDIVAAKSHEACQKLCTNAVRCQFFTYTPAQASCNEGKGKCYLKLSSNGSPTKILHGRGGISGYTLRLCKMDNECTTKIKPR", "UniProt P03951, 388-625 limits assumed": "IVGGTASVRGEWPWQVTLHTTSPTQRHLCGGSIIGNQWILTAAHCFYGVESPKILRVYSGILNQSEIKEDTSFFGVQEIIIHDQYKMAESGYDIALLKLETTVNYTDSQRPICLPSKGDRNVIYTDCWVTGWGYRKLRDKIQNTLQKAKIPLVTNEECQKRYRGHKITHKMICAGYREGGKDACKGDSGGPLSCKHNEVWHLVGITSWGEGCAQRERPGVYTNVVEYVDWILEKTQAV"}, "source": "PubChem BioAssay AID687", "about": "(PCMD, 2007)", "note": "The entries are a selection whose mix differs from that of the whole data set. The source made the active and inactive calls.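 Rule for the calls: active = inhibition above 40% in the primary screen; inactive = the rest.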", "data": [{"target": "Coagulation factor XI (Homo sapiens) (UniProt P03951)", "assay": "human FXIa protease inhibitors, primary screen, biochemical, single compound per well (AID 687);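 note: 0% = enzyme without compound and 100% = blank wells lacking enzyme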", "details": "purified human FXIa, fluorogenic AMC substrate cleavage; at 10 µM; active compounds read high", "values": [{"compound": "c1ccc(CN2CCC(Nc3ccccc3)CC2)cc1", "inhibition": "inactive: -1.93%"}, {"compound": "CCC(CO)(C(=O)OC1CN2CCC1CC2)c1ccccc1", "note": "(centres undefined)", "inhibition": "inactive: 7.23%"}, {"compound": "O=C(NCC1(N2CCOCC2)CCCCC1)c1cc2ccccc2o1", "inhibition": "inactive: 5.55%"}, {"compound": "O=C(NCC1(N2CCOCC2)CCCCC1)c1cc(=O)[nH]c2ccccc12", "inhibition": "inactive: -3.3%"}]}]}
